# Apparent affinities of Ab-14 variants for a coronavirus HR2 peptide

Values reported by Li et al. 2023, doi:10.1038/s41467-023-39022-2 (FLAb copy).

Binding partner: SARS-CoV-2 spike HR2 peptide, sequence PDVDLGDISGINAS.

Parent scFv Ab-14: VH joined to VL by three GGGGS repeats. Changes lie in the heavy chain CDRs alone.
VH: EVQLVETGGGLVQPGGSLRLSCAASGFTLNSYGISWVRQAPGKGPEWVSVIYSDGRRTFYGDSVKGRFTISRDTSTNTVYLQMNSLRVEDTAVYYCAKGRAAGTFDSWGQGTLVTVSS
VL: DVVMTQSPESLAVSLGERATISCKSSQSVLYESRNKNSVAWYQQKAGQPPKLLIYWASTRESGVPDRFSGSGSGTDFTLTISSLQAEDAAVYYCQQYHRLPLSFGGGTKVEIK

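The parent was found by panning a naive human phage display library on the peptide. This is the validation round: designs drawn from the data on random variants, tested in the same kind of assay. Their group label is 14H_En_Gibbs (En: ensemble of fine-tuned language models; Gibbs: Gibbs sampling). AlphaSeq pools MATa yeast showing the antibodies with MATalpha yeast showing the peptide. Mating (16 h, 30 °C) was followed by selection of diploids and sequencing of their barcodes. A regression on co-assayed BCL2-family reference pairs converts the normalised counts of each replicate to an apparent Kd. The assay was run in six technical replicates.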

Each variant is given by its three heavy chain CDRs, as the data file delimits them; those of the parent are GFTLNSYGIS, VIYSDGRRTFYGDSVK, GRAAGTFDS. Values are log10 of the apparent Kd in nM; lower means stronger binding. "nd" marks a missing value. The strain was present, yet no cells mated with the target were sequenced in that replicate, which points to weak or no binding.

CDR-H1 | CDR-H2 | CDR-H3 | replicates, log10 nM | control signals
GWDLEHYGIS | VIYADGKRSEYSDAVK | GQQAGTFNT | 0.20 -0.02 -0.02 0.35 0.26 0.79 | 0 of 18
GQDLAEYGIS | VIYADGKRTMYTNDVK | GHNGGQGKT | nd nd nd nd nd nd | 0 of 18
GFNLDEYGVS | VIYADGKRCQYTNNVK | GENAGFFML | nd nd nd nd nd nd | 0 of 18
GGDLNEYGIS | VIYADGNRKNYIDNVK | GQNGDVLNI | nd nd nd nd nd nd | 0 of 18
GFDVNEYGIS | VIYADGTRTAYANTVK | GKVVGVFVD | nd nd nd nd nd nd | 0 of 18
GFSLQEYGIS | VIYADGMRAQYTPNVK | GQTGFDYTL | nd nd nd nd nd nd | 0 of 18
GFDINEYGIS | VIYADGRRKAYADTVK | GIDVYGKTV | nd nd nd nd nd nd | 0 of 18
GMDLGEYGIS | VIYADGERASYTNNFK | GVNAGFLTV | nd nd nd nd 1.82 nd | 0 of 18
GFNLDEMGIS | VIYADGKRQVYADSVK | GHFGGNKLN | nd nd nd nd nd nd | 2 of 18 (2.84)
GFDLDEYGIS | VIYADGMRSKYADSVK | GTTGGTIEA | nd nd nd nd nd nd | 0 of 18
GFDLNEYGVS | VIYADGFRTSYTDSVK | GNIFDLIMA | nd nd nd nd nd nd | 1 of 18 (1.65)
GFGLEEFGIS | VIYADGFRRAYAQDVK | GGTAGHFVV | nd nd nd nd nd nd | 0 of 18
GFNLDEYGIS | VIYADGYRRMYIDAVK | GTNSGFGGT | nd nd nd nd nd nd | 0 of 18
GFKINEYGIS | VIYADGQRVAYTNSFK | GTQAGQFIN | nd nd nd nd nd nd | 0 of 18
GMGLDEYGIS | VIYADGMRTSYDNSVK | GAWAGTFDE | nd nd nd nd nd nd | 0 of 18
GFDLEEYGIS | VIYADGKREAYTANVK | GGKSGDFFM | nd nd nd nd nd nd | 0 of 18
GTDLEEYGIS | VIYADGRRAAYAQNVK | GFDGINVTY | 0.42 0.22 0.46 0.53 -0.16 0.58 | 0 of 18
GFSLDEFGIS | VIYADGQRSAYSENVK | GQHGGMTVS | 1.37 nd 1.47 1.57 1.48 nd | 0 of 18
GFDLEKYGIS | VIYADGKRVAYLDAVK | GGTGGMFMS | 1.62 0.92 0.96 0.88 0.91 1.02 | 0 of 18
GFSLDEYGIS | VIYADGIRQHYSDQVK | GVKNGNVIM | nd nd nd nd nd nd | 0 of 18
GDSLAEYGIS | VIYADGERTAYKNKFK | GWVAGYFDV | nd nd nd nd nd nd | 0 of 18
GGNLDEYGIS | VIYADGKRRQYVDNVK | GSHADMFIM | nd nd nd nd nd nd | 0 of 18
GFNLDEYGIS | VIYADGARTAYADKVK | GFNWWISVN | nd nd nd nd nd nd | 0 of 18
GFNLDEYGVS | VIYADGVRTAYVSKVK | GQLGWNLLM | nd nd nd nd nd nd | 0 of 18
GFGLQDYGIS | VIYADGQRKMYQDNVK | GNVGSLFSV | nd nd nd nd nd nd | 0 of 18
GFDLEKYGIS | VIYADGIRKVYDQSVK | GQMAGSFTV | 1.96 nd nd nd 2.62 nd | 0 of 18
GFSIDEYGIS | VIYADGLRQFYTNAVK | GEAAGTLDM | 0.55 0.51 0.08 0.22 0.29 0.38 | 1 of 18 (1.94)
GNSLDEYGIS | VIYADGMRTAYTDDFK | GVGSNTLVD | nd nd nd nd nd nd | 0 of 18
GFDLQEYGIS | VIYADGKRRAYENKVK | GQSVGSVVI | nd nd nd nd nd nd | 0 of 18
GFNLNEYGIS | VIYADGIREHYVDDVK | GKHGGGKMD | -1.23 -1.35 -0.69 -1.07 nd -1.47 | 0 of 18
GQDLNEYGIS | VIYADGQRTSYAQSVK | GAGDITGLV | nd nd nd nd nd nd | 0 of 18
GFQLDEMGIS | VIYADGARTQYKSKVK | GGNGDKFDV | nd nd nd nd nd nd | 1 of 18 (1.47)
GFWLDEYGIS | VIYADGMRTAYKNSVK | GSFTYVMFV | nd nd nd nd nd nd | 0 of 18
GFDIDEMGIS | VIYADGVRTAYENKFK | GKNLGLGFV | nd nd nd nd nd nd | 0 of 18
GFSLDEYGIS | VIYADGQRVQYVDPFK | GEQAGNVDV | nd nd nd nd nd 2.50 | 1 of 18 (2.29)
GEDINEYGVS | VIYADGKRNAYANSVK | GKWAGAFVD | 0.36 1.38 0.17 0.63 0.75 1.22 | 1 of 18 (3.49)
GDGLEDYGIS | VIYADGMRTYYAPSVK | GEVNGVMDI | nd nd nd nd nd nd | 0 of 18
GFDINEYGIS | VIYADGIRTAYVSKVK | GRDIINVLF | nd nd nd nd nd nd | 1 of 18 (1.07)
GEQLEEYGIS | VIYADGRRTAYSQSVK | GLNGGIIDV | nd nd nd nd nd nd | 0 of 18
GFDLDEYGIS | VIYADGKRMAYTADVK | GVQGGNALV | nd nd nd nd nd nd | 0 of 18
GYDLVEYGIS | VIYADGIRTVVSNDVK | GNVAGTIFV | nd nd nd nd nd nd | 0 of 18
GFDLNEQGIS | VIYADGVRTEYQNRVK | GQIDGLFTF | nd nd nd nd nd nd | 0 of 18
EFDIQEYGIS | VIYADGKREAYKDKFK | GNVAGTFDA | -0.46 0.79 -0.18 0.17 -1.10 -0.03 | 0 of 18
GNTLDEYGIS | VIYADGVRKAYINKFK | GMMTGTFDQ | nd nd 1.17 nd nd nd | 0 of 18
GFDLEKYGIS | VIYADGKRVAYTDAVK | GGTGGMLMS | nd 3.11 2.41 nd nd nd | 0 of 18

The authors averaged sequences with at least three values out of six and counted those with two or fewer as poor binders. Nonspecific signal, from three strains lacking the peptide, appeared in 1% of pairings of all heavy chain designs, centred on 2.08 (5% of these signals below 0.84); values are not corrected for it. Also given: how often the same scFv was detected with the empty control strains, with their mean in brackets. Values of this round are not directly comparable with the first-round values of the same sequences.